From PubChem BioAssay AID445 (National Center for Advancing Translational Sciences (NCATS), 2006)
Some of the results follow. Records with an inconclusive call do not appear. The source made the active and inactive calls. The call rests on the fitted dose curve; in most records, active means well fitted curve in the direction sought with a large enough effect in the signal ratio (not every such curve was filed as active); inconclusive means small, poorly fitted or top-dose-only effect, or a change in a side signal; inactive means flat fitted curve, though single readings scatter; the % refers to the signal ratio.

assay: IkB Signaling; settings: ABC-DLBCL IkBa-CBG/CBR dual luciferase ratio (green luciferase fused to IkBa over red control in OCI-Ly3 lymphoma cells), 4 h; series mostly up to 57.1 µM; IkBa stabilization activation: at the top concentration;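 on IkBa stabilization activation: 0% = basal untreated cells and 100% = reference inhibitor full response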
Text: NIH Molecular Libraries Screening Centers Network [MLSCN]
NIH Chemical Genomics Center [NCGC]
Nuclear factor kappa-B (NF-kappa-B) plays an important role in normal B cell development and survival. Diffuse large B cell lymphoma (DLBCL) is the most commonly observed type of non-Hodgkin's lymphoma. Gene expression analysis has identified an activated B cell-like subtype of DLBCL (ABC-DLBCL) which expresses known NF-kappa-B target genes. […] However, targets upstream of IKK have been largely unexplored and so nodes upstream of IKK in the NF-kappa-B pathway remain untested due to the lack of chemical probes.
A cell-sensor assay for I-kappa-B-alpha stabilization was developed with NIH investigator Dr. R. Eric Davis in Dr. Louis M. Staudt's laboratory. The assay uses green (CBG68) and red (CBR) emitting beetle luciferases [Chroma-Glo(TM) developed by Promega Corp.] where the green luciferase is fused to I-kappa-B-alpha and the red luciferase is present in its native state. Both luciferase genes are stably present in the OCI-Ly3 human ABC DLBCL cell line, but their expression is under the control of tetracycline-inducible promoters. Following the addition of doxycycline to induce expression of the luciferases, the green luminescence in control cultures rises only slowly because the CBG fusion partner I-kappa-B-alpha is targeted by IKK activity for rapid degradation. In contrast, green luminescence rises rapidly in the presence of proteasome inhibitors or IKK inhibitors. The rise in red luminescence of CBR is not affected by proteasome or IKK inhibitors, and serves as normalization for cell number and nonspecific effects. Compounds were screened as a concentration-titration series that ranged from 57 uM to 0.7 nM.
NCGC Assay Protocol Summary:
Cells were seeded in 1536-well plates at 5000 cells/3ul in IMDM medium containing 0.5% FBS, w/o phenol red, L-glutamine, 25 mM HEPES, 3 mg/ml sodium bicarbonate. After centrifugation for 1 min. at 1000 rpm, 23 nl of compounds or DMSO were delivered to each well using a pin tool. Then 1ul 80ng/ml doxycycline was dispensed into white solid 1536-well plates and the plates were incubated at 37C/5% C02 in a cell incubator for 4 hrs. Then 4 ul Chroma-Glo luminescent substrate mix (Promega) was added to each well. The plate was incubated at R.T. for 10-15 min. The plates were measured on a ViewLux plate reader for green luminescence (540/20 nm filter) and red luminescence (618/8 nm filter). The green and red luminescent signals were corrected for red and green luminescence filter overlap using previously determined filter calibration constants (determined using the procedure outlined in the Promega Technical Manual). The %Activity was determined from the ratio of corrected green/red luminescent values. Green luminescent and ratio %Activity was determined by normalizing to the difference in signal between basal cells (0% Activity) and cells incubated with 10 uM of the proteasome inhibitor MG-132 (100% Activity). Red luminescent %Activity was normalized to the difference between red luminesence in basal cells (0%Activity) and zero luminescence (-100% Activity).
Concentration-response curves were fitted to the signals arising from the green luminescence (I-kappa-B-alpha-luciferase fusion; IkB-luc) and the red luminescence (unfused luciferase; luc) as well as the calculated ratio. The concentration-effect curves were then classified based on curve quality (r2), response magnitude and degree of measured activity. Compounds were then categorized based on their concentration-response curves for all three datasets (Ikb-luc, luc and ratio).
Keywords: IKK, I-kappa-B, IkB, IkBa, cytotoxicity, luminescence, MLSMR, MLSCN, NIH Roadmap, qHTS, NCGC
Potency means the concentration at half of the fitted maximal effect.

**Q.** With `CN(C(=O)Cc1ccc(Cl)c(Cl)c1)[C@@H]1CC[C@@]2(CCCO2)C[C@H]1N1CCCC1` as the compound, how does the “IkBa stabilization activation” value read?
**A.** inactive: -4.88%

**Q.** With `NS(=O)(=O)Cc1ccc([As](=O)(O)O)cc1` as the compound, how does the IkBa stabilization activation read?
**A.** inactive: 1.33% [at 11.4 µM, scaled: untreated 0%, proteasome inhibitor 100%]

**Q.** With `O=C(CC(=O)c1ccccc1)O[C@H]1CN2CCC1CC2` as the compound, how does the IkBa stabilization activation read?
**A.** inactive: 0.569% [at 11.4 µM, scaled: untreated 0%, proteasome inhibitor 100%]

**Q.** Which “IkBa stabilization activation” value does the source give for `CCOP1(=S)c2c(C)nn(CCC#N)c2N=C(c2ccc(F)cc2)N1C` (configuration not stated) here?
**A.** inactive: -2%

**Q.** With `NC(=O)Nc1ccc([As](=O)(O)O)cc1` as the compound, how does the IkBa stabilization activation read?
**A.** inactive

**Q.** Which IkBa stabilization activation does the source give for `O=[As](O)(O)c1ccc([As](=O)(O)O)cc1` here?
**A.** inactive: 2.33% [at 11.4 µM, scaled: untreated 0%, proteasome inhibitor 100%]

**Q.** For `O=P(Nc1nccs1)(c1ccccc1)c1nc2ccccc2s1` (configuration not stated), which Potency is on record?
**A.** active: 3.98 µM

**Q.** For `CCOP1(=S)c2c(C)nn(CCC#N)c2N=C(c2ccccc2F)N1C` (configuration not stated), which “IkBa stabilization activation” value is on record?
**A.** inactive: 0.841%

**Q.** With `O=P1(Nc2ccc(Br)cn2)COc2ccccc2OC1` as the compound, how does the “IkBa stabilization activation” value read?
**A.** inactive: 0.939%

**Q.** For `O=P1(Nc2ncccn2)COc2ccccc2OC1`, which “IkBa stabilization activation” value is on record?
**A.** inactive: -1.62%

**Q.** Which “IkBa stabilization activation” value does the source give for `Cc1nn(-c2ccccc2)c2c1P(=O)(N1CCOCC1)N(C)C(c1ccccc1)=N2` (configuration not stated) here?
**A.** inactive: 1.3%

**Q.** With `CN(C(=O)Cc1ccc(Cl)c(Cl)c1)[C@@H]1CCCC[C@H]1N1CCCC1` as the compound, how does the IkBa stabilization activation read?
**A.** inactive

**Q.** With `Clc1n[nH]nc1-c1nn[nH][15n]1` as the compound, how does the “IkBa stabilization activation” value read?
**A.** inactive: -0.691%

**Q.** For `O=P1(Nc2ccccn2)COc2ccccc2OC1`, which “IkBa stabilization activation” value is on record?
**A.** inactive: 2.26%

**Q.** For `O=C(COc1ccccc1)OC1CN2CCC1CC2` (configuration not stated), which “IkBa stabilization activation” value is on record?
**A.** inactive: 2.65%

**Q.** With `O=C(O)[C@@H](O)c1ccc([As](=O)(O)O)cc1` as the compound, how does the IkBa stabilization activation read?
**A.** inactive: 1.01% [at 11.4 µM, scaled: untreated 0%, proteasome inhibitor 100%]

**Q.** For `COP1(=S)c2c(C)nn(CCC#N)c2N=C(c2ccc(F)cc2)N1C` (configuration not stated), which “IkBa stabilization activation” value is on record?
**A.** inactive: 0.524%

**Q.** For `[N-]=[N+]=NCC(N)=O`, which IkBa stabilization activation is on record?
**A.** inactive: 2.04% [at 11.4 µM, scaled: untreated 0%, proteasome inhibitor 100%]

**Q.** Which IkBa stabilization activation does the source give for `O=[As]c1ccc(S(=O)(=O)NCCO)cc1` (configuration not stated) here?
**A.** inactive: 4.44% [at 11.4 µM, scaled: untreated 0%, proteasome inhibitor 100%]

**Q.** Which IkBa stabilization activation does the source give for `NC(=O)Nc1cc([As](=O)(O)O)cc(I)c1O` here?
**A.** inactive: 1.12% [at 11.4 µM, scaled: untreated 0%, proteasome inhibitor 100%]

**Q.** With `O=C(OC1CN2CCC1CC2)C12CC3CC(CC(C3)C1)C2` (configuration not stated) as the compound, how does the “IkBa stabilization activation” value read?
**A.** inactive: 3.8%

**Q.** For `NCC[C@@H](N)CSP(=O)(O)O`, which IkBa stabilization activation is on record?
**A.** inactive: 0.365% [at 11.4 µM, scaled: untreated 0%, proteasome inhibitor 100%]

**Q.** For `O=[N+]([O-])c1ccc(C[As](=O)(O)O)cc1`, which IkBa stabilization activation is on record?
**A.** inactive: 8.68% [at 11.4 µM, scaled: untreated 0%, proteasome inhibitor 100%]

**Q.** Which IkBa stabilization activation does the source give for `C(Cc1nn[nH]n1)c1nn[nH]n1` here?
**A.** inactive: -0.231% [at 11.4 µM, scaled: untreated 0%, proteasome inhibitor 100%]

**Q.** Which IkBa stabilization activation does the source give for `[N-]=[N+]=NCC(O)CN=[N+]=[N-]` (configuration not stated) here?
**A.** inactive: 0.463% [at 11.4 µM, scaled: untreated 0%, proteasome inhibitor 100%]

**Q.** With `CN(C(=O)Cc1ccc(Cl)c(Cl)c1)[C@H]1CCCC[C@@H]1N1CCCC1` as the compound, how does the IkBa stabilization activation read?
**A.** inactive

**Q.** Which “IkBa stabilization activation” value does the source give for `CN(C(=O)Cc1ccccc1)[C@@H]1CC[C@@]2(CCCO2)C[C@H]1N1CCCC1` here?
**A.** inactive: -1.14%

**Q.** For `O=C(CO)Nc1ccc([As](=O)(O)O)cc1`, which IkBa stabilization activation is on record?
**A.** inactive: 1.3% [at 11.4 µM, scaled: untreated 0%, proteasome inhibitor 100%]

**Q.** For `C[C@@H](O)COc1ccc([As](=O)(O)O)cc1N`, which IkBa stabilization activation is on record?
**A.** inactive: 1.06% [at 11.4 µM, scaled: untreated 0%, proteasome inhibitor 100%]

**Q.** Which IkBa stabilization activation does the source give for `CN1CCC[C@H](OC(=O)C(c2ccccc2)c2ccccc2)C1` here?
**A.** inactive: -0.385% [at 11.4 µM, scaled: untreated 0%, proteasome inhibitor 100%]

**Q.** For `c1nnnn1CCn1cnnn1`, which “IkBa stabilization activation” value is on record?
**A.** inactive: 0.469%

**Q.** For `O=P(Nc1nccs1)(c1ccccc1)c1ccccc1`, which “IkBa stabilization activation” value is on record?
**A.** inactive: -1.86%

**Q.** For `O=C(OC1CN2CCC1CC2)c1cccc(Cl)c1` (configuration not stated), which “IkBa stabilization activation” value is on record?
**A.** inactive: 1.36%

**Q.** With `Cc1cc([N+](=O)[O-])cc([N+](=O)[O-])c1O` as the compound, how does the “IkBa stabilization activation” value read?
**A.** inactive: 0.582%

**Q.** For `[N-]=[N+]=Nc1ccc([As](=O)(O)O)cc1`, which IkBa stabilization activation is on record?
**A.** inactive: 0.237% [at 11.4 µM, scaled: untreated 0%, proteasome inhibitor 100%]

**Q.** Which “IkBa stabilization activation” value does the source give for `COC(=O)c1cc2c(s1)N=C(c1ccccc1)N(C)P2(=O)N1CCOCC1` (configuration not stated) here?
**A.** inactive: 2.54%

**Q.** With `O=P1(Nc2nc3ccc(Cl)cc3s2)COc2ccccc2O1` (configuration not stated) as the compound, how does the “IkBa stabilization activation” value read?
**A.** inactive: -1.97%
